Measured values taken from ChEMBL document CHEMBL4765234, “The Discovery, Preclinical, and Early Clinical Development of Potent and Selective GPR40 Agonists for the Treatment of Type 2 Diabetes Mellitus (LY2881835, LY2922083, and LY2922470)” (J Med Chem, 2016).
Active and inactive are the calls of the source. No cut-off for these calls is given here.

The chains behind the UniProt entries cited, without tags or fusion partners.
UniProt Q76JU9, whole entry: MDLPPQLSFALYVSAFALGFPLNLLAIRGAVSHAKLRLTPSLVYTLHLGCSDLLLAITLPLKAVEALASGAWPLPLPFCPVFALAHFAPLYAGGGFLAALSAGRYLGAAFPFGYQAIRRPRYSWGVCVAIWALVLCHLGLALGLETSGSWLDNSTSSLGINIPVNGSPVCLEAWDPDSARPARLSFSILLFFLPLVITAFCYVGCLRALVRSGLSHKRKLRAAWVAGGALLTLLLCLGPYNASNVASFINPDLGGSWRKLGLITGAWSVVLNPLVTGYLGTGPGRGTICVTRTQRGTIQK
UniProt Q8K3T4, whole entry: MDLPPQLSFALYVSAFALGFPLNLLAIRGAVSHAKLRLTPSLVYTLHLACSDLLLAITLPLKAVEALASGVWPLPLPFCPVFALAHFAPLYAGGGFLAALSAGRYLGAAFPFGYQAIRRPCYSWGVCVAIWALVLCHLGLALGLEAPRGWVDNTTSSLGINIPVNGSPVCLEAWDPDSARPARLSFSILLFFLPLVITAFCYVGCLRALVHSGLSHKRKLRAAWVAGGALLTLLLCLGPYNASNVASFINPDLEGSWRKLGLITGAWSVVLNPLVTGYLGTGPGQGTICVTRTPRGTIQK
UniProt O14842, whole entry: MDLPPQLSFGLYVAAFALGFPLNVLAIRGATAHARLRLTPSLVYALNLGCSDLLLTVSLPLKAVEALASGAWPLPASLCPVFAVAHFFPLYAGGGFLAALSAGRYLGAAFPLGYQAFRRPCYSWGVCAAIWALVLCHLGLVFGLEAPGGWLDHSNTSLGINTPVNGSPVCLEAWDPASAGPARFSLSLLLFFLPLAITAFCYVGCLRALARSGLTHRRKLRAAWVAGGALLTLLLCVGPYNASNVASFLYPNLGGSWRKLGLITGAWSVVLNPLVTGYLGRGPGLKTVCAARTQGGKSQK

Experiments:
[1] = Clearance in human hepatocytes by LC-MS/MS analysis; type: ADME, cell-based, Hepatocyte
[2] = biological target: Free fatty acid receptor 1 (Mus musculus) (UniProt Q76JU9); assay: Agonist activity at GPR40 in mouse MIN6 cells assessed as induction of glucose-mediated insulin secretion incubated for 2 hrs by ELISA; type: cell-based; details: filed as agonist
Outline: (§1)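 Glucose-dependent insulin secretion in mouse MIN6 cells or rat islet cells, scored as secretion above the glucose-alone level.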

[3] = biological target: Free fatty acid receptor 1 (Mus musculus) (UniProt Q76JU9); assay: Agonist activity at Prolink-tagged mouse GPR40 fused with EA-tagged beta-arrestin expressed in human U2OS cells assessed as induction of beta-arrestin recruitment measured after 90 mins by beta-galactosidase based PathHunter assay relative to control; type: cell-based; details: filed as agonist
Outline: (§2)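 PathHunter β-gal complementation. Cells were incubated overnight at 5000/well in medium with 1% heat-inactivated FBS. Compound was added as a 20-point 2-fold series from a top final of 100 μM (1% DMSO) for 90 min at 37 °C, followed by detection reagents and chemiluminescence read after 1 h at rt.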

[4] = biological target: Free fatty acid receptor 1 (Rattus norvegicus) (UniProt Q8K3T4); assay: Agonist activity at Prolink-tagged rat GPR40 fused with EA-tagged beta-arrestin expressed in human U2OS cells assessed as induction of beta-arrestin recruitment measured after 90 mins by beta-galactosidase based PathHunter assay relative to control; type: cell-based; details: filed as agonist; outline: as §2
[5] = biological target: T1, Free fatty acid receptor 1 (Homo sapiens, UniProt O14842); assay: Displacement of [3H]-(S)-2-(6-((2',6'-dimethyl-4'-(3-(methylsulfonyl)propoxy)biphenyl-3-yl)methoxy)-2,3-dihydrobenzofuran-3-yl)acetic acid from human recombinant full-length GPR40 expressed in human HEK293 cell membrane assessed as residence time by radioligand competitive assay; type: cell membranes; details: filed as agonist
Outline: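 Residence time came from competitive association kinetics. [3H]-radioligand binding to human GPR40 HEK293 membranes (5 μg, rt, Tris/Ca/Mg/0.1% BSA buffer) was measured at time points over 0–3 h, with and without several concentrations of unlabeled test compound. Fits used association and dissociation rates of the radioligand from independent kinetic experiments.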

[6] = biological target: T1, Free fatty acid receptor 1; assay: Agonist activity at human recombinant full length GPR40 overexpressed in human HEK293 cells assessed as increase in inositol phosphate accumulation in presence of terbium cryptate-labeled anti IP1/d2-labelled IP1 measured after 120 mins by HTRF assay relative to AMG837; type: functional, cell-based; details: filed as agonist
Outline: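 HEK293 hGPR40 cells (20K/well) were cultured overnight, washed, and held in IP1 stimulation buffer. IP-1 was measured by competitive HTRF immunoassay with terbium cryptate anti-IP1 mAb and d2-labelled IP1.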

[7] = biological target: T1, Free fatty acid receptor 1; assay: Agonist activity at human recombinant full length GPR40 overexpressed in human HEK293 cells assessed as increase in intracellular calcium level measured over 3 mins by calcium 4 dye based FLIPR assay relative to 100 uM linoleic acid; type: functional, cell-based; details: filed as agonist
Outline: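 HEK293 cells overexpressing hGPR40 (25K/well) were cultured overnight in DMEM/F12 with 0.2% FBS and geneticin. Compound was tested at 40 μM–0.1 nM final (20-point, 1% DMSO), and FLIPR fluorescence was read over 3 min.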

[8] = biological target: T1, Free fatty acid receptor 1; assay: Agonist activity at human recombinant full-length Prolink-tagged GPR40 fused with EA-tagged beta-arrestin expressed in human HEK293 cells assessed as induction of beta-arrestin recruitment measured after 90 mins by beta-galactosidase based PathHunter assay relative to control; type: cell-based; details: filed as agonist; outline: as §2
[9] = biological target: Free fatty acid receptor 1 (Rattus norvegicus) (UniProt Q8K3T4); assay: Agonist activity at GPR40 in Sprague-Dawley rat pancreatic islets assessed as induction of glucose-mediated insulin secretion measured after 90 mins in EBSS buffer by ELISA; type: tissue-based; details: Pancreatic islet, filed as agonist; outline: as §1

SMILES	CLH [1]	Activity [2]	Emax [3]	Emax [4]	TIME [5]	Emax [6]	Emax [7]	Emax [8]	Activity [9]
CC#C[C@@H](CC(=O)O)c1ccc(OCc2ccc(CN3CCC4(C=Cc5ccccc54)CC3)cc2)cc1 [LY2881835]	0.28 h⁻¹								
Cc1cc(OCCCS(C)(=O)=O)cc(C)c1-c1cccc(COc2ccc3c(c2)OC[C@H]3CC(=O)O)c1		Active	117%	97%	1.27 h	145%	67%	119%	Active
